Our source for the remaining activity and ΔTm values is publication PMC7730235, “Discovery of a Novel Class of Covalent Dual Inhibitors Targeting the Protein Kinases BMX and BTK” (International Journal of Molecular Sciences, 2020).

Chains of the proteins cited; added tags and fusions are not shown. Lines headed by an entry give the natural chain unless they say otherwise; changes in a name come on top. Residues count along the entry.
UniProt Q15303, 26-1308: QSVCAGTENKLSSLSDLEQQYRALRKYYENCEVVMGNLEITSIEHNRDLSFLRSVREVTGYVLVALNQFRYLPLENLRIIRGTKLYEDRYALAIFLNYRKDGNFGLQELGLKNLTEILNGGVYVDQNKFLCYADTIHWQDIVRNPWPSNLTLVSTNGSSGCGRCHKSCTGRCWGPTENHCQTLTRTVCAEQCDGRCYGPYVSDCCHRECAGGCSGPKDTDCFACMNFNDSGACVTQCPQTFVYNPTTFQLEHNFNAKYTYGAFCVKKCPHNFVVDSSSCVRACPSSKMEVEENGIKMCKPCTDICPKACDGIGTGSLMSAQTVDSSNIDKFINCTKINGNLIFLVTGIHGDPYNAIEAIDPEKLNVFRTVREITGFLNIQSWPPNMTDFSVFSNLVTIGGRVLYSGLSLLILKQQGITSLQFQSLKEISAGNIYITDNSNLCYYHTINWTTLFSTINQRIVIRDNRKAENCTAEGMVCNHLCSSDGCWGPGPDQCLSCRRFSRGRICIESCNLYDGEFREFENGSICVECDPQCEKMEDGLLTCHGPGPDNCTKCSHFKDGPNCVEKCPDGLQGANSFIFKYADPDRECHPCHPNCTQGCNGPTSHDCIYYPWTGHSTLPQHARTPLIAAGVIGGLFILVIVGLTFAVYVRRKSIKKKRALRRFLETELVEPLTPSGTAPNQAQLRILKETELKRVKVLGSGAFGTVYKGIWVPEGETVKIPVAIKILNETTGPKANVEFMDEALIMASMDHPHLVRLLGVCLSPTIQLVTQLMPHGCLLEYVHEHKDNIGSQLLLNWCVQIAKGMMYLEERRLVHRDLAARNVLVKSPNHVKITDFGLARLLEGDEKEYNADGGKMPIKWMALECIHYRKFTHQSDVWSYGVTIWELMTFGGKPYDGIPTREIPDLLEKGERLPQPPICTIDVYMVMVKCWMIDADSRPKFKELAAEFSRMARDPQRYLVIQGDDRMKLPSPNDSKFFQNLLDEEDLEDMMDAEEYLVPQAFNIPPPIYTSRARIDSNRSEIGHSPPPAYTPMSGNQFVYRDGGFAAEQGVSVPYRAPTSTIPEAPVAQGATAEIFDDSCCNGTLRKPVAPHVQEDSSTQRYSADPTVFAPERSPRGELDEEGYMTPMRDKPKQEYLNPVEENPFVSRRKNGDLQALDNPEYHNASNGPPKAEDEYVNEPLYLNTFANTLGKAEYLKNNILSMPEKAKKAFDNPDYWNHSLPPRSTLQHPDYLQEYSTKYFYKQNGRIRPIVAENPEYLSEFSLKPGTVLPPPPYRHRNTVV
UniProt P51451: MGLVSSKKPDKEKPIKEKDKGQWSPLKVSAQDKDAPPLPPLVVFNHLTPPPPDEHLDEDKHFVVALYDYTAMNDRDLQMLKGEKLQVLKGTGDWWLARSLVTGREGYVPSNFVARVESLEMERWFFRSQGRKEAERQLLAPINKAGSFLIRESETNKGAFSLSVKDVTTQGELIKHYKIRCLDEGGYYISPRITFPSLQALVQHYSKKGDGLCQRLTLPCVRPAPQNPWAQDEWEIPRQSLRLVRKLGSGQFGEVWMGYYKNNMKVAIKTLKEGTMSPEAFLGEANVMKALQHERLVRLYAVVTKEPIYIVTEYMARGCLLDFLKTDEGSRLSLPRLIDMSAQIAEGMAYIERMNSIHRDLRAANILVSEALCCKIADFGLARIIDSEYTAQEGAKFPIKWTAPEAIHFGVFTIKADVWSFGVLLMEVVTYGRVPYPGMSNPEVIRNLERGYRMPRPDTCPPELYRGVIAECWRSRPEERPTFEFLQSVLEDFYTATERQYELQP
UniProt P52333, 822-1111 limits assumed: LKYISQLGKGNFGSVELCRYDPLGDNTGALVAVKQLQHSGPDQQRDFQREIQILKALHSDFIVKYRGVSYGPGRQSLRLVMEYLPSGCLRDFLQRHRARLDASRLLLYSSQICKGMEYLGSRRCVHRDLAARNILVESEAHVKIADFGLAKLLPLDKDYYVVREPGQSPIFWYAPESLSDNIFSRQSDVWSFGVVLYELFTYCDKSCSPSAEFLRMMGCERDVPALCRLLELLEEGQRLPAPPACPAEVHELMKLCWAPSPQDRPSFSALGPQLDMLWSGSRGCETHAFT

A word on the ΔTm: it is the shift of the melting midpoint relative to a reference.

One assay deals with T1, HER2 (Homo sapiens, UniProt P04626).
T1 construct: purchased Reaction Biology Corporation
As to the kind of experiment: Radiometric kinase assay (Reaction Biology HotSpot). In kind it is biochemical. The following applies: read-out: Residual Activity @ 200 nM, HER2. As to the method: (§1) If not mentioned differently, in vitro profiling of compounds was performed at Reaction Biology Corporation using the HotSpot™ assay platform.

The target of another assay is T2, EGFR (Homo sapiens, UniProt P00533).
T2 construct: purchased Reaction Biology Corporation
The description is as above. In kind it is biochemical. The following applies: read-out: Residual Activity @ 200 nM, EGFR. The method, then:
as §1

In another assay the target is T3, HER4 (Homo sapiens, UniProt Q15303).
T3 construct: purchased Reaction Biology Corporation
The description is as above. The class given is biochemical. The conditions noted are these: read-out: Residual Activity @ 200 nM, HER4. The method, then: as §1

Another assay has as its target T4, TXK (Homo sapiens, UniProt P42681).
T4 construct: purchased Reaction Biology Corporation
T4 sequence (P42681 1-527): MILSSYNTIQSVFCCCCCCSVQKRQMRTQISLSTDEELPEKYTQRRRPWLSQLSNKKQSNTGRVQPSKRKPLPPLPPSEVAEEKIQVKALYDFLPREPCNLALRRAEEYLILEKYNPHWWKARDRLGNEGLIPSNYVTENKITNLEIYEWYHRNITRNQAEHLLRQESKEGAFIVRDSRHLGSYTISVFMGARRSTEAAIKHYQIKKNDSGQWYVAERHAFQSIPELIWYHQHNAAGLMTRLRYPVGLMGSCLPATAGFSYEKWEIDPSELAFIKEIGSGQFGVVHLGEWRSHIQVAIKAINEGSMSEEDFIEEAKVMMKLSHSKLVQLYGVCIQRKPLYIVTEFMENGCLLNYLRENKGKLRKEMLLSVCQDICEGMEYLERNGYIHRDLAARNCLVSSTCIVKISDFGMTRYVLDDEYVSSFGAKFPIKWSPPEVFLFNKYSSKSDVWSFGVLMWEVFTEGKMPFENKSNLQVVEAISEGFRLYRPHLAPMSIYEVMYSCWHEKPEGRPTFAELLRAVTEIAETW
The description is as above. The following applies: read-out: Residual Activity @ 200 nM, TXK. The class given is biochemical. The method, then: as §1

A further assay concerns the target T5, TEC (Homo sapiens, UniProt P42680).
T5 construct: purchased Reaction Biology Corporation
T5 sequence (P42680 1-631): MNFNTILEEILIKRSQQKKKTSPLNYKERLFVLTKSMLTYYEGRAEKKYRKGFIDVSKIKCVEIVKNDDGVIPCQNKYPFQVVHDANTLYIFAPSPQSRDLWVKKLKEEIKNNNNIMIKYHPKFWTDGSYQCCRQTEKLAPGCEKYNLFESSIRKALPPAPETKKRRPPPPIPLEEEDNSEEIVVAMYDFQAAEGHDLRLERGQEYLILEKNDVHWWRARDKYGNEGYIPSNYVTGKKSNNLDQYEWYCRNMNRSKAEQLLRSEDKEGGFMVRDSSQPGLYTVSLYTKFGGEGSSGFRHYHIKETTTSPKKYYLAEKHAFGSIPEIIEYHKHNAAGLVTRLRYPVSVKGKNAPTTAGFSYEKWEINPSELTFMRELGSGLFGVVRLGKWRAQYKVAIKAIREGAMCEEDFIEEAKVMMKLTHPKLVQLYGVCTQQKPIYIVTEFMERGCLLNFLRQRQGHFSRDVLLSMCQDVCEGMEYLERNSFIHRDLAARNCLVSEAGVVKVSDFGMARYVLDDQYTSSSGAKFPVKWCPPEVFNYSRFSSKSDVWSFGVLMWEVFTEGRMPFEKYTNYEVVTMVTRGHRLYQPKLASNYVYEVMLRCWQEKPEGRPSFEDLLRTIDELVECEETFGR
The assay is described as above. The conditions noted are these: read-out: Residual Activity @ 200 nM, TEC. The class given is biochemical. The method, then: as §1

The target in a further assay is T6, BLK (Homo sapiens, UniProt P51451).
T6 construct: purchased Reaction Biology Corporation
The description is as above. In kind it is biochemical. The conditions noted are these: read-out: Residual Activity @ 200 nM, BLK. As to the method:
as §1

The target of a further assay is T7, kinase domain of JAK3 (Homo sapiens, UniProt P52333).
T7 construct: The kinase domains of JAK3 and BMX at 2 μM; made in house
The assay can be described thus: Thermal shift (ΔTm) assay. The conditions noted are these: read-out: JAK3 ΔTm. The class given is binding. The method, then: The kinase domains of JAK3 and BMX at 2 μM were mixed with the inhibitors at 10 μM, and subsequently SyPRO orange dye (Invitrogen Carlsbad, CA, USA) was added. The thermal shift assay and data evaluation were performed as described previously using a Real-Time PCR Mx3005p machine (Stratagene, La Jolla, CA, USA).

Take `C=CC(=O)Nc1cccc(-c2c[nH]c3ncc(NC(=O)C4CCCC4)cc23)c1` [Compound 12a, N-(3-(3-acrylamidophenyl)-1H-pyrrolo[2,3-b]pyridin-5-yl)cyclopentanecarboxamide]: the remaining activity at 0.2 µM on HER2 is 81.9%; at EGFR, 51.3%; on HER4 it was 15.9%; on TXK, 5.9%; at TEC, 25.4%; on BLK, 14.7%. The ΔTm at 10 µM at kinase domain of JAK3 amounted to 13.8 ± 0.13 °C.
